Consider one compound from ChEMBL document CHEMBL2069242, “Structure and activity relationship in the (S)-N-chroman-3-ylcarboxamide series of voltage-gated sodium channel blockers” (Bioorg Med Chem Lett, 2012).

By UniProt entry, the sequences of proteins in these tests, tags left out. Where a name states a change or a piece, a line headed by the entry shows the natural chain unless it says otherwise.
UniProt Q12809: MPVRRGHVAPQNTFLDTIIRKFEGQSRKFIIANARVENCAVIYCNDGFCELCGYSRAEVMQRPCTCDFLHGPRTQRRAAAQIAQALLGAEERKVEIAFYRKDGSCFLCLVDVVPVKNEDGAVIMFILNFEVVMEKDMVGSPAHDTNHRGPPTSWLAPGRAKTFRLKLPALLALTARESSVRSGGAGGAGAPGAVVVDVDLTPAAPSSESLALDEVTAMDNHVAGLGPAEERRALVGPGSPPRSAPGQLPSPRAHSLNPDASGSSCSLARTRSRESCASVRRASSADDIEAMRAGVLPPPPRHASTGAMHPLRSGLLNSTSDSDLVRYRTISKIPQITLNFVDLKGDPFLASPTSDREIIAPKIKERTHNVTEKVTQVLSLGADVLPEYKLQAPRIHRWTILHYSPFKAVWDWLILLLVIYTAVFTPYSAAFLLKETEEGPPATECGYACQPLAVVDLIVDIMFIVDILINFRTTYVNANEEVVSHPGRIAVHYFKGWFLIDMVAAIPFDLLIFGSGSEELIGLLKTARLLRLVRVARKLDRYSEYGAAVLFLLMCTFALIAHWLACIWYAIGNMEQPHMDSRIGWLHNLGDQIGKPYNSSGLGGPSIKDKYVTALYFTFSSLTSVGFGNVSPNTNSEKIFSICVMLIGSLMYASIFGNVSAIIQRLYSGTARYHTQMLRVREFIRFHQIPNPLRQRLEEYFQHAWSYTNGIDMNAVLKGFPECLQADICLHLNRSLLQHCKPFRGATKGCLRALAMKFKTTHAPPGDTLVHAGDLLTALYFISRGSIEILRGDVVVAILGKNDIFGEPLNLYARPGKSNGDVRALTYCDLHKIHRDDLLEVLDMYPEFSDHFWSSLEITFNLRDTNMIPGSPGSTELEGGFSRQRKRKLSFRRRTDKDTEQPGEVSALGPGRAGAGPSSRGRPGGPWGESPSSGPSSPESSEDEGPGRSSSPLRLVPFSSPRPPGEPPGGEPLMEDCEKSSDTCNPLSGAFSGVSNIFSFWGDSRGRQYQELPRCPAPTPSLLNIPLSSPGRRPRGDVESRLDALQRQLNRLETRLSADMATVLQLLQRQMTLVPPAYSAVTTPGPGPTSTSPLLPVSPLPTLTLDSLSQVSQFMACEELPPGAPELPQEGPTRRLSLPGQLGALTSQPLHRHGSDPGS

In this assay the target is Voltage-gated inwardly rectifying potassium channel KCNH2 (Homo sapiens, UniProt Q12809). In words: Inhibition of human ERG expressed in CHO cells by IonWorks HT assay. The assay is classed as cell-based. Background: In patch-clamp work, channel activity is measured electrically.

For orientation: IC50 means the concentration needed to halve the response being measured.

Turning to `COc1ncc(-c2cccc3c2C[C@H](NC(=O)c2ccc(OCC(F)(F)F)nc2)CO3)cn1`, 7.94 µM corresponded to half-maximal inhibition (IC50).
